# Results taken from PubChem BioAssay AID504558 (Broad Institute, 2011).
# The list shows a part of the results, in another mix than the full data. Some structures show a salt or complex split into parts, the way the source records it. Active and inactive are the calls of the source. Cut-off read from the data, not from the text of the source: active = inhibition above about 41%; inconclusive = no clear call, values can overlap the other calls; inactive = below that.
# Assay: blockers of LMP1-induced NF-kB reporter signal – cell-based, luminescence, single point, primary screen (AID 504558);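 note: 0% = neutral control wells and 100% = reference inhibitor control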
# Details: LMP1-induced NF-kappaB luciferase reporter cells, at 12.5 µM, stronger effect = higher value
row,SMILES,inhibition
1,CCOC(=O)c1ccc(NP(C)(=O)Oc2ccc(F)cc2)cc1 (stereo unspecified),inactive: -7.02%
2,COc1ccc(OP(C)(=O)Nc2ccc(SC(F)(F)F)cc2)cc1 (stereo unspecified),inactive: 18.6%
3,COc1ccc2c(c1O)-c1c(O)c(OC)cc3c1[C@H](C2)[N+](C)(C)CC3.O=[N+]([O-])c1cc([N+](=O)[O-])c([O-])c([N+](=O)[O-])c1[O-],inactive: -0.216%
4,O=C(OC1CN2CCC1CC2)c1ccc([N+](=O)[O-])cc1 (stereo unspecified),inactive: -2.23%
5,O=C(OCCN1CCN(CCOCc2ccccc2)CC1)C(O)(c1ccccc1)c1ccccc1,inactive: 1.91%
6,CP(=O)(Nc1ccccc1F)Oc1ccccc1 (stereo unspecified),inactive: -3.24%
7,CC(C)c1ccc(OP(C)(=O)Nc2ccc(SC(F)(F)F)cc2)cc1 (stereo unspecified),inactive: 6.7%
8,O=[N+]([O-])c1cc([N+](=O)[O-])c(Nc2ccc(Cl)cc2)c([N+](=O)[O-])c1,inactive: -20.7%
9,Cc1ccccc1NP(C)(=O)Nc1ccccc1C,inactive: 1.93%
10,CP(=O)(Nc1ccc2c(c1)OCCO2)Oc1ccccc1 (stereo unspecified),inactive: 18.6%
11,CCOP(C)(=S)SCC(=O)NC(C)(CC)C(=O)O (stereo unspecified),inactive: -0.312%
12,CP(=O)(Nc1ccc(SC(F)(F)F)cc1)Oc1ccc(F)cc1 (stereo unspecified),inactive: 4.59%
13,Cc1c(C(c2ccc3c(c2)OCO3)c2c(C)n(C)n(-c3ccccc3)c2=O)c(=O)n(-c2ccccc2)n1C.O=[N+]([O-])c1cc([N+](=O)[O-])c(O)c([N+](=O)[O-])c1,inactive: -0.0635%
14,O=[N+]([O-])c1ccc(OP2(=O)COCCO2)cc1 (stereo unspecified),inactive: -8.72%
15,O=[N+]([O-])c1cc([N+](=O)[O-])c(NCC2CCS(=O)(=O)C2)c([N+](=O)[O-])c1 (stereo unspecified),inactive: 6.32%
16,Cc1cc(-c2cccc3ccccc23)c(C)cn1.O=[N+]([O-])c1cc([N+](=O)[O-])c(O)c([N+](=O)[O-])c1,inactive: -9.11%
17,CN(C)CCOC(=O)C(O)(c1ccccc1)C1CCCCC1 (stereo unspecified),inactive: -13.4%
18,COc1ccc(NP(C)(=O)Oc2ccccc2OC)cc1 (stereo unspecified),inactive: -0.793%
19,COc1ccc(OP(C)(=O)Nc2cccc(Br)c2)cc1 (stereo unspecified),inactive: -0.542%
20,CCOC(=O)c1ccc(NP(C)(=O)Oc2ccc(Cl)cc2)cc1 (stereo unspecified),inactive: -49%
21,CP(=O)(OC12CC3CC(CC(C3)C1)C2)OC12CC3CC(CC(C3)C1)C2,inactive: -8.47%
22,CN(C)C(=O)c1c([N+](=O)[O-])cc([N+](=O)[O-])cc1[N+](=O)[O-],inactive: -0.186%
23,COc1ccccc1OP(C)(=O)Nc1ccccc1Br (stereo unspecified),inactive: -3.58%

row,SMILES,inhibition
1,CC(C)(C)c1ccc(OP(C)(=O)O)cc1,inactive: 2.99%
2,CP(=O)(Nc1ccc(Cl)cc1)Oc1ccc(F)cc1 (stereo unspecified),inactive: -1.34%
3,O=C(OCCCN1CCCC1)C(O)(c1ccccc1)C1CCCCC1 (stereo unspecified),inactive: -3.58%
4,COc1ccccc1OP(C)(=O)Nc1c(C)n(C)n(-c2ccccc2)c1=O (stereo unspecified),inactive: -0.164%
5,CCc1ccc(OP(C)(=O)Nc2cccnc2)cc1 (stereo unspecified),inactive: -1.21%
6,CP(=O)(Oc1ccccc1)N1CCOC1=O (stereo unspecified),inactive: -9.37%
7,COc1ccc(OP(C)(=O)Nc2ccc(Br)cc2)cc1 (stereo unspecified),inactive: -13%
8,CCN(CC)CC(O)COC(=O)C(O)(c1ccccc1)C1CCCCC1 (stereo unspecified),inactive: 1.42%
9,COc1ccccc1OP(C)(=O)Nc1ccc(C)cc1C (stereo unspecified),inactive: -7.78%
10,CP(=O)(Nc1ccccn1)Oc1ccccc1 (stereo unspecified),inactive: -6.63%
11,CCc1ccc(OP(C)(=O)O)cc1,inactive: -3.42%
12,Cc1c(NP(C)(=O)Oc2ccc(C(C)C)cc2)c(=O)n(-c2ccccc2)n1C (stereo unspecified),inactive: -15.2%
13,O=[N+]([O-])c1cc([N+](=O)[O-])c(Nc2ccccn2)c([N+](=O)[O-])c1,inactive: -5.46%
14,COc1ccc(OP(C)(=O)Nc2ccccn2)cc1 (stereo unspecified),inactive: -4.28%
15,CN(C)CCOC(=O)C(O)(c1ccccc1)C1CCCC1 (stereo unspecified),inactive: -15.8%
16,COc1ccccc1OP(C)(=O)Nc1ccc(Br)cc1 (stereo unspecified),inactive: -5.61%
17,CP(=O)(Nc1ccc(Cl)cc1Cl)Oc1ccccc1 (stereo unspecified),inactive: -1.04%
18,CCCCCCCCCCCCCCCC1C[N+](C)(C)CCOP(C)(=O)O1 (stereo unspecified),inactive: 28.7%
19,CP(=O)(OCCOc1ccccc1)OCCOc1ccccc1,inactive: 4.09%
20,COc1ccccc1OP(C)(=O)Nc1ccc(C)c(C)c1 (stereo unspecified),inactive: 1.41%
21,COc1ccc(OP(C)(=O)Nc2ccccc2Br)cc1 (stereo unspecified),inactive: -2.92%
22,Cc1cc(C)cc(OP(C)(=O)Nc2cccc(C(F)(F)F)c2)c1 (stereo unspecified),inactive: 4.38%
23,O=C1C(O)=C([N+](=O)[O-])C(=O)C(O)=C1[N+](=O)[O-],inactive: 5.73%
